By UniProt entry, the sequences of proteins in these tests, tags left out. Residues count along the entry.
UniProt P22413, 191-591 limits assumed: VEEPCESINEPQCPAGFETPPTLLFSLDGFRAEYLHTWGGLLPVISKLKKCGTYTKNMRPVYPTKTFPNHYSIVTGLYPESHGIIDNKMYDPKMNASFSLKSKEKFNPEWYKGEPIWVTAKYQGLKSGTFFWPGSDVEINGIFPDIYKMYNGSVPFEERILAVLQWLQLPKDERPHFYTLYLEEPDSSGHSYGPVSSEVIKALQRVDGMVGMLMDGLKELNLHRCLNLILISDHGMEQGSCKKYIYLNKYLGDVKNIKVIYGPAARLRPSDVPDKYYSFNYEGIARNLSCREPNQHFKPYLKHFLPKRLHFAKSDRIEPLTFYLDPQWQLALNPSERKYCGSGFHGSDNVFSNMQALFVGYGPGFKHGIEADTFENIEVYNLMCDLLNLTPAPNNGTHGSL

According to patent US20240382474A1, “ENPP1 MODULATORS AND USES THEREOF” (Vir Biotechnology, Inc., priority 2021, published 2024):

Biological target: human ENPP1 enzymatic domain (Homo sapiens, UniProt P22413)
Test: ENPP1 Enzymatic Inhibition Assay (2′3′-cGAMP substrate, AMP-Glo luminescence)
Settings: read-out: ENPP1 (cGAMP) Inhibition, 1 nM ENPP1, 20 uM 2′3′-cGAMP, 30 minutes at 37° C.
Experimental: The inhibition of ENPP1's phosphodiesterase activity were tested in a purified enzymatic assay using 2′3′-cyclic GAMP as a substrate which allowed for the release of cleaved AMP to be monitored using a luminescent assay.
Putative inhibitors were diluted in assay buffer (50 mM Tris pH 8.0, 250 mM NaCl, 0.5 mM CaCl2), 1 uM ZnCl2, 1% DMSO) and pre-incubated for 15 minutes at 37° C. with recombinant protein containing the human ENPP1 enzymatic domain (Viva Biotech). The enzymatic reaction was initiated upon addition of the 2′3′-cGAMP substrate. The final reaction concentrations were 1 nM ENPP1 and 20 uM 2′3′-cGAMP substrate in a 25 uL volume. Inhibitor concentrations ranged from 10 uM to 0.056 nM. The reaction was incubated for 30 minutes at 37° C.
After reacting for 30 minutes, the amount of AMP generated from the cleavage of 2′3′-cGAMP was determined using the Promega AMP-Glo method according to the manufacturer's protocol. […] The luminescence of the mixture was read on a Perkin Elmer Ensight plate reader.
The maximum and minimum levels of ENPP1 activity were established using no inhibitor and no enzyme controls, respectively. The activity observed using ENPP1 inhibitors was quantified as the percent of activity relative to these controls. IC50 values were calculated using CDD Vault by fitting a sigmoidal variable slope nonlinear regression model to the data.

`CCC(NS(=N)(=O)c1ccc(Oc2ccnc3cc(OC)ccc23)cc1)c1ccn(C)n1` (single isomer, unassigned) was tested, and the IC50 was < 10 nM.
